Experimental data reported in patent US20260384421A1, “NOVEL COMPOUNDS THAT CAN BE USED AS THERAPEUTIC AGENTS” (published 2026).
Like-named read-outs stand apart in the source and are kept apart here.

Legend:
[1] = test system: MDA-MB-231 cells; test: alamarBlue proliferation assay with MDA-MB-231 cells (glucose-free Leibovitz's L-15 medium)
Source text: (§1) These hyperproliferative processes can be benign or malignant and include hyperplasia, neoplasia, cancer and pre-cancerous lesions, and metastases. The antiproliferative activities of compounds falling under general formula (I) were investigated on human primary epidermal keratinocytes (HPEK) and human, murine and canine cell lines derived from hyperproliferative tissue or different cancer types, including MDA-MB-231, ZR-75-30, HCC-1395, HCC-1937, and T-47D all originating from cancer of the breast, JURKAT, RPMI-8402, LOUCY, TANQUE, REC-1, HL-60, NB-4 all originating from different types of blood cancer including lymphoma and leukemia of T-cells, B-cells and myeloid cells, TT originating from cancer of the neuroendocrine system, HeLa originating from cancer of the cervix, 23132/87, SW-948, and HCT-116 all originating from cancer of the gastrointestinal tract including stomach and colon, BHY originating from cancer of the mucosal epithelium, A-431 originating from cancer of the skin, HEP-G2 originating from cancer of the liver, NCI-H460 and A-549 both originating from cancer of the lung, PANC-1 originating from cancer of the pancreas, U-87 MG originating from cancer of the brain, A-375 and RVH-421 both originating from cancer of melanocytes, SW-1353 originating from cancer of bone-derived chondrocytes, C2C12 a mouse cell line originating from hyperproliferative muscle progenitor cells, LL/2 a mouse cell line originating from cancer of the lung, CF21.T a dog cell line originating from cancer of the connective tissue. To this end, according cells were seeded into 96-well plates (CORNING #3598) suitable for fluorescence assays at following initial cell numbers: 1000 cells per well for HPEK; 3000 cells per well for MDA-MB-231, 8000 cells per well for ZR-75-30, 1500 cells per well for HCC-1395, 1500 cells per well for HCC-1937, 3000 cells per well for T-47D, 1500 cells per well for JURKAT, 5000 cells per well for RPMI-8402, 9000 cells per well for LOUCY, 1500 cells per well for TANQUE, 9000 cells per well for REC-1, 1000 cells per well for HL-60, 1000 cells per well for NB-4, 9000 cells per well for TT, 2000 cells per well for HeLa, 2000 cells per well for 23132/87, 9000 cells per well for SW-948, 700 cells per well for HCT-116, 1500 cells per well for BHY, 700 cells per well for A-431, 1500 cells per well for HEP-G2, 500 cells per well for NCI-H460, 1000 cells per well for A-549, 1500 cells per well for PANC-1, 2500 cells per well for U-87 MG, 700 cells per well for A-375, 1500 cells per well for RVH-421, 2000 cells per well for SW-1353, 500 cells per well for C2C12, 500 cells per well for LL/2, and 3000 cells per well for CF21.T. In a volume of 90 μL per well of culture medium the cells were treated with compounds at indicated final concentrations by adding 10 μL per well of 10× compound working solutions from 1:100 pre-diluted 1000× compound DMSO stock-solutions in H2O (Water For Injection, WFI, Fisher Scientific, Gibco™ #A12873) or with the empty carrier DMSO (AppliChem, #A3672) at 0.1% v/v as control yielding a final volume of 100 μL per well. At day 5 after starting the treatments the cells were subjected to the alamarBlue® Proliferation Assay (Bio-Rad Serotec GmbH, BUF012B) according to the protocol of the manufacturer. The readout was taken with a multi-well plate-reader (Tecan Spark®) in the fluorescence mode with applying a filter for excitation at 560 nm (band width 10 nm) and for emission at 590 nm (band width 10 nm). Treatment for maximum proliferation inhibition with the commercial cytotoxic compound (S)-(+)-camptothecin (Fluorochem #M01564) at a concentration of 10 μM was included on each plate for assay quality control. Some of the test compounds of the present invention may have been obtained and applied as their salt forms.
(§2) The assays were performed in duplicate or more replicates of independent single experiments each containing a three- to six-fold replicate for every condition. […]

[2] = test system: TANQUE cells; test: alamarBlue proliferation assay with TANQUE cells; conditions: read-out: Activity on TANOUE: IC50, RPMI 1640 medium, 10% FBS
Source text: as §1, §2

[3] = test system: NB-4 cells; test: alamarBlue proliferation assay with NB-4 cells; conditions: read-out: Activity on NB-4: IC50, RPMI 1640 medium, 10% FBS
Source text: as §1, §2

[4] = test system: HCT-116 cells; test: alamarBlue proliferation assay with HCT-116 cells; conditions: read-out: Activity on HCT-116: IC50, McCoy's 5A medium, 10% FBS
Source text: as §1, §2

[5] = test system: BHY cells; test: alamarBlue proliferation assay with BHY cells; conditions: read-out: Activity on BHY: IC50, DMEM medium, 10% FBS
Source text: as §1, §2

[6] = test system: HEP-G2 cells; test: alamarBlue proliferation assay with HEP-G2 cells; conditions: read-out: Activity on HEP-G2: IC50, RPMI 1640 medium, 10% FBS
Source text: as §1, §2

[7] = test system: A-549 cells; test: alamarBlue proliferation assay with A-549 cells; conditions: read-out: Activity on A-549: IC50, DMEM medium, 10% FBS
Source text: as §1, §2

[8] = test system: LL/2 cells; test: alamarBlue proliferation assay with LL/2 cells; conditions: read-out: Activity on LL/2: IC50; LL/2 murine Lewis lung carcinoma cells, DMEM medium, 10% FBS
Source text: as §1, §2

[9] = test system: HPEKp cells; test: proliferation assay with human epidermal keratinocyte progenitors (HPEKp), selectivity versus MDA-MB-231
Source text: as §1, §2

[10] = test system: mitochondrial transmembrane potential Δψm in A-549 cells; test: mitochondrial activity assay (TMRE staining, mitochondrial transmembrane potential) on A-549 cells; conditions: A-549 cells, compounds at 10 μM, 2 h 40 min, TMRE staining, relative to DMSO = 1.0
Description: A decrease in mitochondrial function can be assessed by the relative quantification of the mitochondrial transmembrane potential Δψm. The Adm-decreasing activities of compounds falling under general formula (I) were investigated with tetramethylrhodamine ethyl ester (TMRE) staining on A-549 cells. Access and cultivation method of A-549 cells are as described above. To this end, according cells were seeded into 96-well plates suitable for fluorescence assays (Greiner Bio-One, #655090) at a cell number of 45'000 cells per well. Cells were incubated over night at 37 °C and 5% CO2. This was followed by a complete medium change with 100 μL per well of fresh culture medium pre-warmed to 37 °C. Cells were further incubated at 37 °C and 5% CO2 for three hours. Then the cells were treated with compounds at 10 μM final concentration by adding 100 μL per well of a 2× compound working solution of 1:50 pre-diluted compound DMSO stock-solutions in Hank's Balanced Salt Solution (HBSS, Fisher Scientific, Gibco™ #14025). Cells were incubated for 2 hours and 40 minutes at 37 °C and 5% CO2. Then cells were treated with TMRE (AAT-Bioquest, #22220) at 300 nM final concentration by adding 20 μL per well of a 10×TMRE working solution from a 1:5 pre-diluted TMRE DMSO stock-solution in H2O (Water For Injection, WFI, Fisher Scientific, Gibco™ #A12873). Cells were incubated for further 20 minutes at room temperature in the dark, gently shaking on an orbital shaker (IKA, MTS 2/4 Digital Shaker, shaking at 300 rpm). Extracellular TMRE signal was quenched by adding 20 μL per well of a 1.6 mM solution of Brilliant Black BN (Carl Roth, #7643) in H2O. Cells were further incubated for 60 min at room temperature. Then the readout was taken with a multi-well plate-reader (Tecan Spark®) in the fluorescence mode using a filter for excitation at 535 nm (band width 25 nm) and for emission at 595 nm (band width 35 nm) without plate lid. Treatment for strong decrease in Δψm with the commercial mitochondrial uncoupler compound 2,4-dinitrophenol (DNP, Sigma Aldrich-Merck #34334) at a final concentration of 50 μM was included on every plate for assay quality control.
The assays were performed in two independent biological replicates, each containing three technical replicates for every condition. For every individual plate, the measured fluorescence intensity values of the conditions with compound treatment were normalized against the corresponding equally weighted arithmetic mean of the fluorescence intensity values of the three DMSO treated control wells in order to obtain the relative values to a reference level of 1.0.
The weighted arithmetic mean and the combined standard deviation as defined in the present invention was calculated for each compound as described above. The DNP control decreased the relative mitochondrial transmembrane potential Δψm in A-549 cells to 0.2.

[11] = test system: A-431 cells; test: alamarBlue proliferation assay with A-431 cells; conditions: read-out: Activity on A-431: IC50, DMEM medium, 10% FBS
Source text: as §1, §2

[12] = test system: RVH-421 cells; test: alamarBlue proliferation assay with RVH-421 cells (glucose-free L-15 medium); conditions: read-out: Activity on RVH-421: IC50, Leibovitz's L-15 medium, 10% FBS, 0% CO2
Source text: as §1, §2

[13] = test system: SW-1353 cells; test: alamarBlue proliferation assay with SW-1353 cells (glucose-free L-15 medium); conditions: read-out: Activity on SW-1353: IC50, Leibovitz's L-15 medium, 10% FBS, 0% CO2
Source text: as §1, §2

[14] = read-out: Activity (MDA), MDA-MB-231 cells, antiproliferative activity, class by IC50
[15] = read-out: Activity on MDA-MB-231 (IC50), glucose-free Leibovitz's L-15, 10% FBS, day 5, alamarBlue
[16] = read-out: Activity (HPEK), HPEK cells (HPEKp), antiproliferative activity, class by IC50
[17] = read-out: Activity (MDA): antiproliferative activity on MDA-MB-231 cells, IC50 category, MDA-MB-231 cells cultivated in glucose-free Leibovitz's L-15 medium
[18] = read-out: Activity (HPEK): antiproliferative activity on HPEK cells, IC50 category, HPEK cells cultivated in CnT-Prime medium

| SMILES | IC50 [1, 14] [nM] | IC50 [1, 15] [nM] | IC50 [2] [nM] | IC50 [3] [nM] | IC50 [4] [nM] | IC50 [5] [nM] | IC50 [6] [nM] | IC50 [7] [nM] | IC50 [8] [nM] | IC50 [9, 16] [nM] | Activity: relative mitochondrial transmembrane potential Δψm [10] | IC50 [1, 17] [nM] | IC50 [11] [nM] | IC50 [12] [nM] | IC50 [9, 18] [nM] | IC50 [13] [nM] |
| --- | --- | --- | --- | --- | --- | --- | --- | --- | --- | --- | --- | --- | --- | --- | --- | --- |
| O=C(c1ccc(Oc2ccc(C3CCC(CO)CC3)cc2CO)cc1)N1CCN(Cc2ccc(Cl)cc2)CC1 (stereo not drawn) | < 1000 | ≤ 200 | ≤ 200 | ≤ 200 | ≤ 200 | ≤ 200 | ≤ 200 | ≤ 200 | ≤ 1000 | < 10000 | Δψm ≤0.7 |  |  |  |  |  |
| C#CCN1CCN(C(=O)c2ccc(Oc3ccc(C4CCC5(CC4)N=N5)cc3CO)cc2)CC1 |  | ≤ 5000 |  |  |  |  | ≤ 20000 |  |  |  |  | < 5000 | ≤ 20000 | ≤ 5000 | > 10000 |  |
| O=C1CCC(c2ccc(Oc3ccc(C(=O)N4CCN(Cc5ccc(Cl)cc5)CC4)cc3)c(CO)c2)CC1 | < 5000 | ≤ 200 | ≤ 200 | ≤ 200 | ≤ 200 | ≤ 200 | ≤ 200 | ≤ 200 | ≤ 1000 | < 10000 | Δψm ≤0.7 |  |  |  |  |  |
| COc1ccc(CN2CC3(C2)CN(C(=O)c2ccc(Oc4ccc(C5CCC6(CC5)OCCO6)cc4CO)cc2)C3)cc1 |  | ≤ 5000 |  |  |  |  |  | ≤ 20000 |  |  |  | < 1000 |  |  | < 10000 | ≤ 5000 |
| CC(=O)N(c1ccc(C(=O)N2CCN(Cc3ccccc3)CC2)cc1)c1ccc(C2CCC3(CC2)OCCO3)cc1 |  | ≤ 20000 |  |  |  |  |  |  |  |  |  |  |  | ≤ 20000 |  |  |
| CC(=O)Nc1ccc(CN2CCN(C(=O)c3ccc(Oc4ccc(C5CCC6(CC5)OCCO6)cc4CO)cc3)CC2)cc1 |  | ≤ 200 | ≤ 1000 | ≤ 1000 | ≤ 200 | ≤ 200 |  | ≤ 200 | ≤ 5000 |  | Δψm ≤0.7 | < 1000 |  |  | < 10000 | ≤ 200 |
| O=C(c1ccc(Oc2ccc(C3CCCCC3)cc2CO)cn1)N1CCN(Cc2ccc(S(F)(F)(F)(F)F)cc2)CC1 |  |  | ≤ 200 | ≤ 1000 | ≤ 200 | ≤ 200 | ≤ 200 | ≤ 200 | ≤ 200 |  | Δψm ≤0.7 |  |  |  |  |  |
| O=C(c1ccc(Oc2ccc(C3CCC4(CCCCO4)CC3)cc2CO)cc1)N1CCN(Cc2ccccc2)CC1 (stereo not drawn) |  | ≤ 200 | ≤ 200 | ≤ 200 | ≤ 200 | ≤ 200 |  | ≤ 200 | ≤ 5000 |  | Δψm ≤0.7 |  |  |  |  | ≤ 200 |
| Cc1ccc(S(=O)(=O)N2CCN(C(=O)c3ccc(Oc4ccc(C5CCC6(CC5)OCCO6)cc4CO)cc3)CC2)cc1 | < 5000 | ≤ 5000 |  |  |  |  |  | ≤ 5000 |  | > 10000 |  |  |  |  |  | ≤ 5000 |
| COC1CCC(c2ccc(Oc3ccc(C(=O)N4CCN(Cc5ccc(Cl)nc5)CC4)nc3)c(CO)c2)CC1 (stereo not drawn) | < 1000 | ≤ 200 | ≤ 200 | ≤ 200 | ≤ 200 | ≤ 200 | ≤ 200 | ≤ 200 | ≤ 1000 | < 10000 | Δψm ≤0.7 |  |  |  |  |  |
| O=C(c1ccc(Oc2ccc(C3CCC4(CC3)OCCO4)cc2CO)cc1)N1CCN(S(=O)(=O)c2ccc(F)cc2)CC1 | < 1000 | ≤ 5000 |  |  |  |  |  | ≤ 20000 |  | > 10000 |  |  |  |  |  | ≤ 5000 |
